Data set [1] concerns the target eukaryotic RNA polymerase II (Pol II) (Homo sapiens, UniProt P24928). As to conditions: literature; cited from earlier work.
For a further data set, the system named is HEK293-OATP1B3 cells. As to the kind of experiment: Cell viability assay (BrdU incorporation) on HEK293-OATP1B3 cells. Type of data set: cell-based, human. The protocol: . HEK293 and HEK-OATP1B3 cells were plated at 2.5×10^3 cells/well in a 1:1 mixture of Ham's F12 with DMEM containing 10% charcoal-stripped fetal calf serum (FCS) onto poly-D-lysine-coated 96-well plates and grown for 24 hours. Subsequently, cells were incubated with amanitin analogs at 8 different concentrations (1×10^−6 M to 1.28×10^−11 M, serial 1:5 dilutions). Following 96 h of drug exposure, cell viability was determined by a BrdU incorporation assay (Cell Proliferation ELISA, BrdU, Roche) and chemiluminescence was measured using a FLUOstar Optima plate reader (BMG LABtech). Data analysis was performed with GraphPad Prism 8 (GraphPad Software, Inc., La Jolla, CA) software to plot curve fits.

For data set [2] the following is noted: in vivo; cited from earlier work.
The test system of another data set is CHO cells. As to the kind of experiment: Viability assay against CHO cells (MTT colorimetric assay). Type of data set: cell-based, Chinese hamster. The conditions noted are these: 72 h, replicates n = 1, 2, 3. The protocol: (f) Cell culture: Cells were cultured in Minimum Essential Medium Eagle—Alpha Modification (α-MEM) or […] Dulbecco's Modified Eagle Medium (DMEM), purchased from Gibco. Fetal bovine serum (FBS), 0.25% trypsin (with 1.3 mM ethylenediaminetetraacetic acid, EDTA), 0.85% Trypan blue, and the antibiotic mixture Pen/Strep (10K U/mL penicillin, 10K mg/mL streptomycin) were also purchased from Gibco. All cell culture plastic ware was obtained from Coming or Falcon. Cells were cultured at 37° C. in a humidified chamber with 5% CO2. When used in cell culture, DMSO was purified by filtration through a […] filter. All experiments were carried out in a laminar flow culture cabinet, unless otherwise noted. Absorbance measurements of the 96-well plates were obtained using a Beckman-Coulter DTX 880 multimode detector, equipped with an excitation filter of 595 nm.
Immortalized CHO cells had been stored in liquid nitrogen. To revive cells, a 1-mL tube of the frozen cells in medium containing 10% DMSO was warmed in a 30° C. water bath and diluted with 9 mL of fresh media. Media contained 10% FBS and 100 U/mL penicillin and […] streptomycin, unless otherwise indicated. The cells were incubated in a T-25 flask at 37° C. at 5% CO2. After 24 hours, the medium was aspirated and replaced with fresh medium. When cells reached a level of 90-100% confluence, they were sub-cultured. The medium was removed, and the cells were treated with 0.25% trypsin containing 1.3 mM EDTA in the incubator. Once the cells were detached from the tissue culture flask, 3-5 mL media was added to quench the trypsin and the mixture was transferred to a 10 mL centrifuge tube. The mixture was centrifuged for 5 min at […], and the supernatant was discarded. The cells were suspended in fresh medium, diluted as required, and transferred to a new culture flask.
To assay cell viability, a nearly confluent tissue culture flask was trypsinized, and the cells were counted following treatment with Trypan blue, using a hemocytometer. The cells were then diluted to the appropriate stock concentrations in fresh medium and transferred in 100 μL to a 96-well plate using a multi-channel pipette. The number of cells plated varied from experiment to experiment. These were incubated at 37° C. and 5% CO2 for a 24-hour period to allow for adherence. The medium was aspirated, and fresh medium was added, which contained the desired additives in DMSO. The cells were then re-incubated for 72 h. At the completion of the experiment, a 100 μL aliquot of 25 mg/mL MTT in phosphate-buffered saline (PBS) was added to each well. The plate was incubated three hours further to allow for the formation of the formazan product in viable cells. The media was carefully aspirated, and the purple product was solubilized in DMSO. The absorbance of each well was recorded at 595 nm. Data was processed in Microsoft Excel and GraphPad Prism. Experiments were performed in triplicates unless otherwise noted, and the error bars were calculated as the standard error of the mean.
Trypsinized cells were diluted to a concentration of 3.3×10^4 cells/mL for CHO cells. Each cell line was plated in a 96-well plate, with 100 μL of the stock solution per well (5000 cells per well) and incubated for 24 hours. Stocks of α-amanitin or analogs were prepared at various concentrations, containing a maximum of 0.8% DMSO, and added to various wells, according to the desired final concentration. The cells were incubated for 72 hours, at which point viability was assessed as described.
On the technique in general: Tetrazolium dyes change colour on reduction, which living cells bring about.

These results are taken from patent US20240082416A1, “AMATOXIN ANALOGS AND USES THEREOF” (THE UNIVERSITY OF BRITISH COLUMBIA, priority 2020, published 2024).

Several values for one entry are separate records, joined by “and”; a condition that tells them apart may be missing. Identical values can stand only once.

For orientation: Ki means the equilibrium dissociation constant of an inhibitor or competing ligand from its target. By IC50 is commonly meant the concentration needed to halve the response being measured. As a reminder, the cell viability is the share of living cells, or the viability signal relative to a control. A lower cell viability goes with more harm to the cells.

Turning to “α-amanitin [Compound 1, reference compound]”, in data set [1], the inhibitory constant (Ki) was 1 to 10 nM. The IC50 with HEK293-OATP1B3 cells (96 h) came out at 43.1 ± 7.4 nM. Also, the cell viability in the data set on HEK293-OATP1B3 cells (highest used concentration of 1 μM) was 0%. Moreover, the ID50 in data set [2] is 0.05 to 0.1 mg/kg. Further, the “% viable cells” value with CHO cells (2e-005 M) was 1%; in the data set on CHO cells (2.22e-006 M, listed as α-amanitin (1)) it was 16% and 13% and 14%; with CHO cells (2.5e-007 M, listed as α-amanitin (1)), 76% and 82% and 81%; in the data set on CHO cells (2.7e-008 M, listed as α-amanitin (1)), 84% and 90% and 109%; in the data set on CHO cells (6.67e-006 M, listed as α-amanitin (1)), 2% (2×) and 1%; in the data set on CHO cells (7.4e-007 M, listed as α-amanitin (1)), 59% and 65% and 81%. The “% viable cells” value in the data set with CHO cells (8.2e-008 M, listed as α-amanitin (1)) was 76% and 73% and 97%; in the data set with CHO cells (9e-009 M, listed as α-amanitin (1)), 89% and 91% and 117%.
